Tests used:
Experiment in all cases: Two-electrode voltage-clamp recordings, Xenopus oocytes
Format in all cases: cell-based
GluN1/GluN2A G786A = GluN1/GluN2A G786A (Rattus norvegicus, UniProt P35439+Q00959, G786A); settings: 100 μM glutamate, 0 μM TCN-201
GluN1/GluN2A E790M = GluN1/GluN2A E790M (Rattus norvegicus, UniProt P35439+Q00959, E790M); settings: 100 μM glutamate, 0 μM TCN-201
[1] = target: GluN1 F754A co-expressed with GluN2A (Rattus norvegicus, UniProt P35439+Q00959, F754A); settings: 100 μM glutamate, 0 μM TCN-201
GluN1/GluN2A V783L = GluN1/GluN2A V783L (Rattus norvegicus, UniProt P35439+Q00959, V783L); settings: 100 μM glutamate
GluN1/GluN2A M788A = GluN1/GluN2A M788A (Rattus norvegicus, UniProt P35439+Q00959, M788A); settings: 100 μM glutamate, 0 μM TCN-201
GluN1/GluN2A V783F = GluN1/GluN2A V783F (Rattus norvegicus, UniProt P35439+Q00959, V783F)
GluN1/GluN2A G786D = GluN1/GluN2A G786D (Rattus norvegicus, UniProt P35439+Q00959, G786D); settings: 100 μM glutamate
GluN1/GluN2A V783D = GluN1/GluN2A V783D (Rattus norvegicus, UniProt P35439+Q00959, V783D); settings: 100 μM glutamate, 0 μM TCN-201
GluN1/GluN2B F784V = GluN1/GluN2B F784V (Rattus norvegicus, UniProt P35439+Q00960, F784V); settings: 100 μM glutamate
GluN1/GluN2A L777A = GluN1/GluN2A L777A (Rattus norvegicus, UniProt P35439+Q00959, L777A); settings: 100 μM glutamate, 0 μM TCN-201
[2] = target: GluN1 R755A co-expressed with GluN2A (Rattus norvegicus, UniProt P35439+Q00959, R755A)
GluN1/GluN2A V783A = GluN1/GluN2A V783A (Rattus norvegicus, UniProt P35439+Q00959, V783A)
GluN1/GluN2A V783S = GluN1/GluN2A V783S (Rattus norvegicus, UniProt P35439+Q00959, V783S); settings: 100 μM glutamate, 0 μM TCN-201
GluN1/GluN2A V783W = GluN1/GluN2A V783W (Rattus norvegicus, UniProt P35439+Q00959, V783W); settings: 100 μM glutamate, 0 μM TCN-201
GluN1/GluN2A P527A = GluN1/GluN2A P527A (Rattus norvegicus, UniProt P35439+Q00959, P527A); settings: 100 μM glutamate, 0 μM TCN-201
GluN1/GluN2A E789A = GluN1/GluN2A E789A (Rattus norvegicus, UniProt P35439+Q00959, E789A); settings: 100 μM glutamate, 0 μM TCN-201
GluN1/GluN2A T793R = GluN1/GluN2A T793R (Rattus norvegicus, UniProt P35439+Q00959, T793R); settings: 100 μM glutamate, 0 μM TCN-201
GluN1/GluN2A Q781A = GluN1/GluN2A Q781A (Rattus norvegicus, UniProt P35439+Q00959, Q781A); settings: 100 μM glutamate, 0 μM TCN-201
GluN1/GluN2A L779A = GluN1/GluN2A L779A (Rattus norvegicus, UniProt P35439+Q00959, L779A); settings: 100 μM glutamate, 0 μM TCN-201
GluN1/GluN2A V783H = GluN1/GluN2A V783H (Rattus norvegicus, UniProt P35439+Q00959, V783H); settings: 100 μM glutamate, 0 μM TCN-201
[3] = target: GluN1 I519A co-expressed with GluN2A (Rattus norvegicus, UniProt P35439+Q00959, I519A); settings: 100 μM glutamate, 0 μM TCN-201
GluN1/GluN2B = GluN1/GluN2B (Rattus norvegicus, UniProt P35439+Q00960); settings: 100 μM glutamate
GluN1/GluN2A = GluN1/GluN2A (Rattus norvegicus, UniProt P35439+Q00959); settings: for Glycine activity nH: 100 μM glutamate
GluN1/GluN2A M788I = GluN1/GluN2A M788I (Rattus norvegicus, UniProt P35439+Q00959, M788I); settings: 100 μM glutamate, 0 μM TCN-201
GluN1/GluN2A V783T = GluN1/GluN2A V783T (Rattus norvegicus, UniProt P35439+Q00959, V783T); settings: 100 μM glutamate, 0 μM TCN-201
GluN1/GluN2B L783F+F784V = GluN1/GluN2B L783F+F784V (Rattus norvegicus, UniProt P35439+Q00960, F784V/L783F); settings: 100 μM glutamate
GluN1/GluN2A L780A = GluN1/GluN2A L780A (Rattus norvegicus, UniProt P35439+Q00959, L780A); settings: 100 μM glutamate, 0 μM TCN-201

Amino acid sequences for entries named in this document (tags omitted). Residues count along the entry.
UniProt Q00959, 23-1464 G786A: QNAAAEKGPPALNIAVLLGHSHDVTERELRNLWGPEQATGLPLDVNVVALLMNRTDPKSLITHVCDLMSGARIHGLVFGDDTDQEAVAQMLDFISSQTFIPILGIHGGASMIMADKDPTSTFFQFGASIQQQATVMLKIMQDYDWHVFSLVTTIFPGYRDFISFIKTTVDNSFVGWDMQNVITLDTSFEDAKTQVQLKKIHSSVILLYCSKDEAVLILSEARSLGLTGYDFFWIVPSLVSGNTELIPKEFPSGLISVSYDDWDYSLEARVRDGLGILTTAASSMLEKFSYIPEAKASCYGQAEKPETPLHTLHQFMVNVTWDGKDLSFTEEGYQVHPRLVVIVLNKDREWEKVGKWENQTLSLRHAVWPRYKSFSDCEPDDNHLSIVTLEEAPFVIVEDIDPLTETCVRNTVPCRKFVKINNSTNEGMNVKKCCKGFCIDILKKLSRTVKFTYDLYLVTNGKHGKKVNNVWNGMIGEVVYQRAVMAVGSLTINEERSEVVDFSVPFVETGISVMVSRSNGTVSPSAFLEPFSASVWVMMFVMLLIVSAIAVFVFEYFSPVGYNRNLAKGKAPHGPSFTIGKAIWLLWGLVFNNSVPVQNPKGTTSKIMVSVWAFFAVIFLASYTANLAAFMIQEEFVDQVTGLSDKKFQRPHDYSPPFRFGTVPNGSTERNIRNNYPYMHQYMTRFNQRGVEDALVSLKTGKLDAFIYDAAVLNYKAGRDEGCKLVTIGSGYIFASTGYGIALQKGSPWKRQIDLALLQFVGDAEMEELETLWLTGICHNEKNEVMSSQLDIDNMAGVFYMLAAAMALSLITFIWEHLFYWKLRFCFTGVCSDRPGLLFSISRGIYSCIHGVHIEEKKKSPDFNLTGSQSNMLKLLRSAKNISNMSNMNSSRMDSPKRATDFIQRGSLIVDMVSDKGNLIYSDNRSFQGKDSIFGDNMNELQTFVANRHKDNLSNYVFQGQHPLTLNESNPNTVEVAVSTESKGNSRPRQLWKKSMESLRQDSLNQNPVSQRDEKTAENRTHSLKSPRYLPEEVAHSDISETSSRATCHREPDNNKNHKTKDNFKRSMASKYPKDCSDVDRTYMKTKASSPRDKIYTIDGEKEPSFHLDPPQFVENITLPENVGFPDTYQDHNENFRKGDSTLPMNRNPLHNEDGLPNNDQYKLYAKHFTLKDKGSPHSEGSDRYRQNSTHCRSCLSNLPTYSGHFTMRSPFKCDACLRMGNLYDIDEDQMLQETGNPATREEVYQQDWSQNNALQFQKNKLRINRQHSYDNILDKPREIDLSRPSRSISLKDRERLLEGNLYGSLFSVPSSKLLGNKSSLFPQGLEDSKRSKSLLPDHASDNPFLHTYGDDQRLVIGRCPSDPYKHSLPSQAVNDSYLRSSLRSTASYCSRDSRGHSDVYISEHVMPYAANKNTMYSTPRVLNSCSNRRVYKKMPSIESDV
UniProt Q00960, 27-1482 F784V: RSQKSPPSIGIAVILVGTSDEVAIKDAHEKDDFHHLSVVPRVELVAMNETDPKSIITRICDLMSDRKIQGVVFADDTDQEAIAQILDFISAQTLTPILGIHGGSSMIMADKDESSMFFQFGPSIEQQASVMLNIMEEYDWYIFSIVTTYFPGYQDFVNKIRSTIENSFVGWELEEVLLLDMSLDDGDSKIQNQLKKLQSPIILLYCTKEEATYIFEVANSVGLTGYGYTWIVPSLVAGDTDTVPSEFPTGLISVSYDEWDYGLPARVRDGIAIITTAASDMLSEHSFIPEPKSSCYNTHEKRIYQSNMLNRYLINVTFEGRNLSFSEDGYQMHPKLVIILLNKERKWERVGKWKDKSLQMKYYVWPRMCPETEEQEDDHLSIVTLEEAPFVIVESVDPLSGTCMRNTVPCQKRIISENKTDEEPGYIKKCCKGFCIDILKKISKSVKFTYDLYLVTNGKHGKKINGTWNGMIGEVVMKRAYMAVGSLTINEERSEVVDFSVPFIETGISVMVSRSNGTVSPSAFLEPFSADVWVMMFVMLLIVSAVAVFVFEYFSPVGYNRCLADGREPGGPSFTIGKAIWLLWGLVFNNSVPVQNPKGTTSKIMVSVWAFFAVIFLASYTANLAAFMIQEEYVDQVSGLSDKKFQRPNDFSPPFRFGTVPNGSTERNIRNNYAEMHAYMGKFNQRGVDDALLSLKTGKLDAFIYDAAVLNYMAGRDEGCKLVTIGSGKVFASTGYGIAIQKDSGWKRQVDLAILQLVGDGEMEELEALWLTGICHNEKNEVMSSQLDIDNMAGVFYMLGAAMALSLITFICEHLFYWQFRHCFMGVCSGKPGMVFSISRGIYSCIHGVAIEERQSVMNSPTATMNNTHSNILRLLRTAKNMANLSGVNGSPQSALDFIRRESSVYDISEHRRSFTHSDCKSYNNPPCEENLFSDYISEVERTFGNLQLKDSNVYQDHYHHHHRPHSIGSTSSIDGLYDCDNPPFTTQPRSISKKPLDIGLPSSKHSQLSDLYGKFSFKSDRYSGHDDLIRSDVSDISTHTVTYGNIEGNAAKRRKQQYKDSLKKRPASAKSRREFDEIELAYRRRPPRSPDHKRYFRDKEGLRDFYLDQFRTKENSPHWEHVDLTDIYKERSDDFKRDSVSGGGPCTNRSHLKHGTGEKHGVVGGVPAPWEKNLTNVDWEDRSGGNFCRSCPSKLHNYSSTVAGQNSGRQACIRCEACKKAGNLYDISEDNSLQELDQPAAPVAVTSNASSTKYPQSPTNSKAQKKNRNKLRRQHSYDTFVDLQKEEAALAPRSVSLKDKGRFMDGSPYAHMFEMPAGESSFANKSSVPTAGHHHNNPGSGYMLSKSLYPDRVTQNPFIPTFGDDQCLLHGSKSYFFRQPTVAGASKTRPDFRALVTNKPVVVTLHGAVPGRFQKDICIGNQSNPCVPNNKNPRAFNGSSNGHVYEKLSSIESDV
UniProt Q00960, 27-1482: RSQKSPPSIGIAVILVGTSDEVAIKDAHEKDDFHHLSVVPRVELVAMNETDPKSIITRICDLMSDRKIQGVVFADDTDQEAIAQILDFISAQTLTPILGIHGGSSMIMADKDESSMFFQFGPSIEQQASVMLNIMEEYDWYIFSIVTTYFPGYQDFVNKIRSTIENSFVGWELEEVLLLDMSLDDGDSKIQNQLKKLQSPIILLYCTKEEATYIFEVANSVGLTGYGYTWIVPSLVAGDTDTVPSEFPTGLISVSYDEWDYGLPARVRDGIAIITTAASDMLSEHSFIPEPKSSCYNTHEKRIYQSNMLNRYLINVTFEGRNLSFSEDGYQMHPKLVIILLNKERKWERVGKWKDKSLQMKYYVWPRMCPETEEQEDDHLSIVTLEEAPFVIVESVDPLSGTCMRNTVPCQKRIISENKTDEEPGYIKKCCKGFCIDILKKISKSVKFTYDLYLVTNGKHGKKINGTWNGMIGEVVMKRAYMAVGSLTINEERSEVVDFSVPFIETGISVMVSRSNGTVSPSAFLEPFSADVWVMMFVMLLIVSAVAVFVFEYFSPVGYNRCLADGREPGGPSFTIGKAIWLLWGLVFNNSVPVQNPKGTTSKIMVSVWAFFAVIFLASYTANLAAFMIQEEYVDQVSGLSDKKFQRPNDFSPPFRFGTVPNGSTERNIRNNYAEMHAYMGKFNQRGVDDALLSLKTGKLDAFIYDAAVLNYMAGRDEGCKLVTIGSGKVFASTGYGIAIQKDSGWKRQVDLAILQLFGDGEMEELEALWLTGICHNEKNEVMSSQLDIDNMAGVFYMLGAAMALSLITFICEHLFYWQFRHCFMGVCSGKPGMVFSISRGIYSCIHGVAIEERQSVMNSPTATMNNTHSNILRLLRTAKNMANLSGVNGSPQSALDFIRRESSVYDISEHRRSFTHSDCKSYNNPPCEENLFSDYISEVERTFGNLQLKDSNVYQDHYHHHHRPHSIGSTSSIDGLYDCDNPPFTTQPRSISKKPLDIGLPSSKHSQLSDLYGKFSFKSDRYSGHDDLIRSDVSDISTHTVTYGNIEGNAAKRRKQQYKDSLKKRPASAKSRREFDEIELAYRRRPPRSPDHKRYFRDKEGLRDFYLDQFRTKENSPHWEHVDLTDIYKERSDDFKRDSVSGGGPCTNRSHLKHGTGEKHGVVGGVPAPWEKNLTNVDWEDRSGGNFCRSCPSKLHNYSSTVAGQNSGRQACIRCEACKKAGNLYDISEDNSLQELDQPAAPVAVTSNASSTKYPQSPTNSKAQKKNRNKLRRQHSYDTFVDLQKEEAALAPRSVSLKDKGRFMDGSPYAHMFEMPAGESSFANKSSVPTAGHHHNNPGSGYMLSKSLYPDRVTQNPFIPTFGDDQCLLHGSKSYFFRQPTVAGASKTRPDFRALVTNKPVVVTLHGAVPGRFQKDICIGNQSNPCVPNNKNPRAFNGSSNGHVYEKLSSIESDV
UniProt Q00960, 27-1482 L783F/F784V: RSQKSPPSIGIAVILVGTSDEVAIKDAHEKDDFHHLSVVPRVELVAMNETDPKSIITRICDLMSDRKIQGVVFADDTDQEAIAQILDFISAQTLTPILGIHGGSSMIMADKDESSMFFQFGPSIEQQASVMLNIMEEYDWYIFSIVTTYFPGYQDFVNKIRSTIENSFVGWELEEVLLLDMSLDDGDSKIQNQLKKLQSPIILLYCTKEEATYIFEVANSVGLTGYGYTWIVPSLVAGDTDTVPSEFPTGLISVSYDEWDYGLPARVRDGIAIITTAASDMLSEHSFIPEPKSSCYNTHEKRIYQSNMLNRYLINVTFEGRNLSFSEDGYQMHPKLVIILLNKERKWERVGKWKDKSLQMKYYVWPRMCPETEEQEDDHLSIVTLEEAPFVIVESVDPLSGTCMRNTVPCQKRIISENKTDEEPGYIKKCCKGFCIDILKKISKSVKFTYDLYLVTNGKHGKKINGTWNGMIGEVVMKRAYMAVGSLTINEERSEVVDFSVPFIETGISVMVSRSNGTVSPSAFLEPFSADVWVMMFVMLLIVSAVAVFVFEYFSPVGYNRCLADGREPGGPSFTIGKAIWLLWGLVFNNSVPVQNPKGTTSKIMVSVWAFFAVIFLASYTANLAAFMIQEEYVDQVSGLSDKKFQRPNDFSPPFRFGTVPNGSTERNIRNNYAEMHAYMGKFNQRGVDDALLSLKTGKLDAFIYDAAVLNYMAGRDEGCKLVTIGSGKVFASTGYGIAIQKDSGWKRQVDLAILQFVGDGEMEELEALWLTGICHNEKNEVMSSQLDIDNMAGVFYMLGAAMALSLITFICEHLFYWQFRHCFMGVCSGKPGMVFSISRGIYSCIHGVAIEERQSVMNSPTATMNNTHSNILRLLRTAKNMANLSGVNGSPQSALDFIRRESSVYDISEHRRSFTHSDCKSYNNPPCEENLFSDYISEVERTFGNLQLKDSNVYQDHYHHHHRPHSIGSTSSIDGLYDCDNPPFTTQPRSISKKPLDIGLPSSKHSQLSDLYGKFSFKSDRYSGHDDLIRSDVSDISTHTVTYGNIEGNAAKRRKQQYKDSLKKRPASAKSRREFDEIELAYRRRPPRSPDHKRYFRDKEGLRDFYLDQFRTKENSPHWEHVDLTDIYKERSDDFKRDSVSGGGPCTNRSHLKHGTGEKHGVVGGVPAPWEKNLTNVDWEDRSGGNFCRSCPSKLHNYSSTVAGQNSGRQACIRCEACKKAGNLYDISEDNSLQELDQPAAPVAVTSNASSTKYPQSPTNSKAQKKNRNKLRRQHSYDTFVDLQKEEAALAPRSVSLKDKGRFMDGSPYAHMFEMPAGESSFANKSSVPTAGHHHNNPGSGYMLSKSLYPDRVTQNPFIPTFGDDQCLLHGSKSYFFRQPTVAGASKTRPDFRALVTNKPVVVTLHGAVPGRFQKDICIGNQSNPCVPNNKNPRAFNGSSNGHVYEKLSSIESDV

Q: How did the “Glycine activity nH” value (GluN1/GluN2A G786A) turn out when `NCC(=O)O` [Glycine, glycine] was run?
A: 1.0

Q: And the “Glycine activity nH” value (GluN1/GluN2A E790M)?
A: 1.4

Q: And the “Glycine activity nH” value [1]?
A: 1.6

Q: What about the “Glycine activity nH” value (GluN1/GluN2A V783L; 0 μM TCN-201) of the same compound?
A: 1.4

Q: What about the “Glycine activity nH” value (GluN1/GluN2A V783L; 10 μM TCN-201) of the same compound?
A: 1.3

Q: And the “Glycine activity nH” value (GluN1/GluN2A M788A)?
A: 1.3

Q: What about the “Reduction in glycine EC50 compared to wild type GluN2A” value (GluN1/GluN2A V783F) of the same compound?
A: 2.2 fold

Q: What about the “Glycine activity nH” value (GluN1/GluN2A V783F; 100 μM glutamate, 0 μM TCN-201) of the same compound?
A: 1.3

Q: And the “Glycine activity nH” value (GluN1/GluN2A G786D; 0 μM TCN-201)?
A: 1.5

Q: What about the “Glycine activity nH” value (GluN1/GluN2A G786D; 10 μM TCN-201) of the same compound?
A: 1.1

Q: What about the “Glycine activity nH” value (GluN1/GluN2A V783D) of the same compound?
A: 1.3

Q: And the “Glycine activity nH” value (GluN1/GluN2B F784V; 0 μM TCN-201)?
A: 1.2

Q: And the “Glycine activity nH” value (GluN1/GluN2B F784V; 10 μM TCN-201)?
A: 1.5

Q: What about the “Glycine activity nH” value (GluN1/GluN2A L777A) of the same compound?
A: 1.3

Q: What about the “Increase in glycine EC50 compared to wild type” value [2] of the same compound?
A: 4.0 fold

Q: And the “Glycine activity nH” value ([2]; 100 μM glutamate, 0 μM TCN-201)?
A: 1.1

Q: What about the “Increase in glycine EC50 compared to wild type GluN2A” value (GluN1/GluN2A V783A) of the same compound?
A: 2.2 fold

Q: What about the “Glycine activity nH” value (GluN1/GluN2A V783A; 100 μM glutamate, 0 μM TCN-201) of the same compound?
A: 1.0

Q: And the “Glycine activity nH” value (GluN1/GluN2A V783S)?
A: 1.3

Q: What about the “Glycine activity nH” value (GluN1/GluN2A V783W) of the same compound?
A: 1.4

Q: And the “Glycine activity nH” value (GluN1/GluN2A P527A)?
A: 1.2

Q: And the “Glycine activity nH” value (GluN1/GluN2A E789A)?
A: 1.3

Q: What about the “Glycine activity nH” value (GluN1/GluN2A T793R) of the same compound?
A: 1.5

Q: What about the “Glycine activity nH” value (GluN1/GluN2A Q781A) of the same compound?
A: 1.1

Q: What about the “Glycine activity nH” value (GluN1/GluN2A L779A) of the same compound?
A: 1.3

Q: What about the “Glycine activity nH” value (GluN1/GluN2A V783H) of the same compound?
A: 1.4

Q: What about the “Glycine activity nH” value [3] of the same compound?
A: 1.3

Q: And the “Glycine activity nH” value (GluN1/GluN2B; 0 μM TCN-201)?
A: 1.2

Q: And the “Glycine activity nH” value (GluN1/GluN2B; 10 μM TCN-201)?
A: 1.1

Q: And the “Glycine activity nH” value (GluN1/GluN2A; 0 μM TCN-201)?
A: 1.4

Q: And the “Glycine activity nH” value (GluN1/GluN2A; 10 μM TCN-201)?
A: 0.9

Q: What about the “Increase of glycine EC50 by TCN-201” value (GluN1/GluN2A; absence vs 10 μM TCN-201) of the same compound?
A: 100 fold

Q: And the “Glycine activity nH” value (GluN1/GluN2A M788I)?
A: 1.5

Q: What about the “Glycine activity nH” value (GluN1/GluN2A V783T) of the same compound?
A: 1.2

Q: What about the “Glycine activity nH” value (GluN1/GluN2B L783F+F784V; 0 μM TCN-201) of the same compound?
A: 1.2

Q: What about the “Glycine activity nH” value (GluN1/GluN2B L783F+F784V; 10 μM TCN-201) of the same compound?
A: 1.5

Q: And the “Glycine activity nH” value (GluN1/GluN2A L780A)?
A: 1.1

Source: PMC3355950 (The Journal of Neuroscience, 2012)
